Results as given in publication PMC3334918, “Mutagenesis and Functional Studies with Succinate Dehydrogenase Inhibitors in the Wheat Pathogen Mycosphaerella graminicola” (PLoS ONE, 2012).

tested on: wild type IPO323 M. graminicola strain; assay type: cell-based, Mycosphaerella graminicola; details: minimal concentration to fully inhibit growth of WT IPO323, AE agar, 10^7 cells, 2 weeks at 20°C in the dark
From the text: Selection plates were produced after adding 1% of a 100× DMSO solution of the active ingredients to pre-melted AE-agar.

Row | Structure (SMILES) | Minimal selective concentration (MSC)
1 | O=C(Nc1ccccc1-c1ccc(Cl)cc1)c1cccnc1Cl [Boscalid] | Boscalid 30 µM (MSC)
2 | O=C(NCCc1ncc(C(F)(F)F)cc1Cl)c1ccccc1C(F)(F)F [Fluopyram] | Fluopyram 25 µM (MSC)
3 | CC1=C(C(=O)Nc2ccccc2)SCCO1 [Carboxin] | Carboxin 85 µM (MSC)
